Experimental data taken from publication PMC12015242, “A universal cannabinoid CB1 and CB2 receptor TR-FRET kinetic ligand-binding assay” (Frontiers in Pharmacology, 2025).

By UniProt entry, the sequences of proteins in these tests, tags left out. Residues count along the entry.
UniProt P21554, 91-472: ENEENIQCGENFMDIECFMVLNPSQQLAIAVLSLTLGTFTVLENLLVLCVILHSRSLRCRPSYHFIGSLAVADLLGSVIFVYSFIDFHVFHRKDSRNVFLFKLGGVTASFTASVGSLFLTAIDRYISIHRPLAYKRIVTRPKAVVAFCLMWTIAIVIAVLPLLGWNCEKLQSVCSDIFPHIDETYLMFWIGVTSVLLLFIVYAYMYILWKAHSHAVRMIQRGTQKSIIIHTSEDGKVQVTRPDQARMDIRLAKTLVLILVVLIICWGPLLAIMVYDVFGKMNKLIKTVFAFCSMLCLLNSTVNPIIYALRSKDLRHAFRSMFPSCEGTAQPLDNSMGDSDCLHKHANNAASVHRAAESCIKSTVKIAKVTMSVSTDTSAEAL

Key:
[1] = biological target: T1, human CB1R (SNAP-CB1R91–472) (Homo sapiens, UniProt P21554)
[2] = biological target: T1, human CB1R (SNAP-CB1R91–472); remark: listed apart in the source

With SR 144528 the “pK d (kinetic)” value [1] was 6.43 ± 0.01, the “pKd (kinetic)” value [1] was 6.72 ±0.02 and the pK i [2] was 6.43 ± 0.01.
